{"source": "patent US20260325464A1", "about": "“COMPOSITIONS FOR MODULATING THE EXPRESSION OF AQUAPORINS IN NEURODEGENERATIVE DISORDERS” (priority 2023, published 2026)", "key": {"Dopamine": {"system": "Dopamine", "experiment": "Dopamine in brain (kinetic spectrophotometric), reserpine Parkinson's model", "format": "in vivo, rat", "conditions": "25 mg/kg, p.o. + Reserpine (4 mg/kg, s.c.), Mean ± SEM, n = 6", "text": "(§1) The induction of Parkinson's disease and measurement of other parameters were done as per the reported protocol (Santos et al., Cognitive, motor and tyrosine hydroxylase temporal impairment in a model of parkinsonism induced by reserpine. Behav Brain Res. 2013; 253:68-77 and Shishehbore et al. A novel kinetic spectrophotometric method for the determination of dopamine in biological and pharmaceutical samples. J Chem. 2013; 2013:1-6). Induction of Parkinson's disease was done by administering Resperine, which inhibits the monoamine vesicular transporters, thus decreasing the levels of monoamine neurotransmitters in the brain. Following pretreatment for 14 days with Gingerenone A, the rat groups received subcutaneous injections of reserpine (4 mg/kg) for the final five days of the treatment regimen. Resperine (5 mg) was dissolved in 1 ml of 1% acetic acid and then diluted tenfold with distilled water to achieve a final concentration of 500 μg/ml. […]\nDopamine—Studies have shown that symptoms of Parkinson's develop in patients with an 80 percent or greater loss of dopamine-producing cells in the substantia nigra. […] The change in absorbance was recorded spectrophotometrically at 601 nm (Shishehbore et al., Novel Kinetic Spectrophotometric Method for the Determination of Dopamine in Biological and Pharmaceutical Samples. 2013. Article ID 819460, https://doi.org/10.1155/2013/819460)."}, "substantia nigra": {"system": "substantia nigra", "experiment": "Brain histopathology of substantia nigra, reserpine Parkinson's model", "format": "in vivo, rat", "conditions": "25 mg/kg, p.o., FIG. 15", "text": "The brain histopathology was done for all the experimental groups. The brain tissue was fixed in 10% buffered neutral formalin solution. The tissue was embedded in paraffin, sectioned at […] stained with hematoxylin and eosin (H&E). The sections were examined under light microscope to study the architecture of the brain tissue, and then photomicrographs were taken (Fischer A H, Jacobson K A, Rose J, Zeller R. Hematoxylin and eosin staining of tissue and cell sections. CSH Protoc. 2008:1;pdb.prot4986. doi: 10.1101/pdb.prot4986).\nas §1, with “regimen.” for “regimen. Resperine (5 mg) was dissolved in 1 ml of 1% acetic acid and then diluted tenfold with distilled water to achieve a final concentration of 500 μg/ml.”"}}}
{"smiles": "C[C@@](Cc1ccc(O)c(O)c1)(NN)C(=O)O", "note": "[Carbidopa, reference compound]", "values": [{"measurement": "Dopamine", "setting": "Dopamine", "result": "0.148 ± 0.037", "unit": "µg/mL"}, {"measurement": "histopathology of substantia nigra", "setting": "substantia nigra", "result": "both normal [FIG. 15A—Arrow] and degenerative neuronal cells having dark nucleus with mild basophilic cytoplasm [FIG. 15B—Arrow]. Mild inflammation noted at places and the neuropils had focal vacuoles"}]}
